Values quoted from earlier work, collected in US7727952B2, “Methods for treating spinal and bulbar muscular atrophy using LHRH analogs” (priority 2002, dated 2010).

Conditions: Danek et al., 1994, Goldenberg et al., 1996, Neuschmid-Kaspar et al.; cited from earlier work

In the case of `CCCCCCC(=O)O[C@H]1CC[C@H]2[C@@H]3CCC4=CC(=O)CC[C@]4(C)[C@H]3CC[C@]12C` [testosterone, testosterone enanthate], the “effects as a therapeutic agent for SBMA” value is given as “insufficient and transient effects”.
